# Values of other authors in PMC8951016, “Computational Design and Biological Evaluation of Analogs of Lupin Peptide P5 Endowed with Dual PCSK9/HMG-CoAR Inhibiting Activity” (Pharmaceutics, 2022).
# By UniProt entry, the sequences of proteins in these tests, tags left out. Residues count along the entry.
# UniProt Q8NBP7, 153-692 limits assumed: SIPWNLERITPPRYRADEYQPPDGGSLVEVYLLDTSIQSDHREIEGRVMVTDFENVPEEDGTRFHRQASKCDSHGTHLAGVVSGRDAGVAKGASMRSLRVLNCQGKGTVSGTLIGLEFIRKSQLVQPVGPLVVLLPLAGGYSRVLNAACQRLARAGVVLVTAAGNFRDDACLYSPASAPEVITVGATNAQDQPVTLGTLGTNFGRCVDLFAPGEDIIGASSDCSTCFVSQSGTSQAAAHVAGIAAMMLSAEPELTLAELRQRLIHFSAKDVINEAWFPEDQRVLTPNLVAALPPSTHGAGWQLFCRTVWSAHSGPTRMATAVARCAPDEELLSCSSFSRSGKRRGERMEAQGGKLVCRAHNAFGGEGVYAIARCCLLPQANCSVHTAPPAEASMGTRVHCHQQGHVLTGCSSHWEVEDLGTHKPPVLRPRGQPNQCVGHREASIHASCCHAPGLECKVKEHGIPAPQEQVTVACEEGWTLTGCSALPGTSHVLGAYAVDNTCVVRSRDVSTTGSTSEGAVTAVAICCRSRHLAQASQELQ
# UniProt Q8NBP7, 31-152 partner limits assumed: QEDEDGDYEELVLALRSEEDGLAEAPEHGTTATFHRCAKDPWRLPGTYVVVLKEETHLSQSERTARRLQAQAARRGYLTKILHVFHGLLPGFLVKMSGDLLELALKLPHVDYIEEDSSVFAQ
# Assays:
# LDL uptake, HepG2 cells = conditions: human hepatic HepG2; cited from earlier work
# PCSK9-LDLR = PCSK9-LDLR (Homo sapiens, UniProt Q8NBP7); conditions: read-out: IC50, PCSK9/LDLR interaction (Rim13); poly-imidazole; cited from earlier work
# [1] = test system: LDLR on HepG2 cell surface; conditions: human hepatic HepG2; cited from earlier work
smiles,measurement,setting,value
CNCCCCCn1cncc1-c1nc(-c2ncc(-c3ccc(OC)cc3)n2C)cn1Cc1ccccc1,extracellular LDL uptake by HepG2,"LDL uptake, HepG2 cells",capacity to increase the extracellular uptake of LDL
same,IC50,PCSK9-LDLR,1400 nM
same,LDLR expression on HepG2 surface,[1],ability to modulate the LDLR expression
